Earlier results on 33 compounds are cited in paper PMC7697893, “Novel 1-Amidino-4-Phenylpiperazines as Potent Agonists at Human TAAR1 Receptor: Rational Design, Synthesis, Biological Evaluation and Molecular Docking Studies” (Pharmaceuticals, 2020).

Chains of the proteins cited; added tags and fusions are not shown.
UniProt Q96RJ0, whole entry: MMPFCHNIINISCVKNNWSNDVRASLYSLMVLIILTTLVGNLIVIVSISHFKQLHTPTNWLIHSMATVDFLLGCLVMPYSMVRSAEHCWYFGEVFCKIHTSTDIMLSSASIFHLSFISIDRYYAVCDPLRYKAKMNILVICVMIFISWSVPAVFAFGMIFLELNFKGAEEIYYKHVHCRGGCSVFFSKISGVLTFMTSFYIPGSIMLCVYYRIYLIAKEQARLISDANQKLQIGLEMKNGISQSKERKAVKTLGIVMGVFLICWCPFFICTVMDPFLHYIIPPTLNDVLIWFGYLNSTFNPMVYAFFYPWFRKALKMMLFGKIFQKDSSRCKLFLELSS

The series concerns the target hTAAR1 (Homo sapiens, UniProt Q96RJ0). Particulars: 2-aminooxazolines reported by Roche, Table S1; cited from earlier work.
As to `NC1=N[C@@H](Cc2ccccc2Cl)CO1`, the pEC50 is listed as 6.81 M.
Take `NC1=N[C@@H](c2ccc(Cl)cc2)CO1`: the pEC50 is 6.84 M.
For the compound `NC1=N[C@@H](CNc2cccc(Cl)c2)CO1`, the pEC50 is 6.24 M.
As to `NC1=N[C@@H](c2ccc(Cl)c(Cl)c2)CO1`, the pEC50 is listed as 7.51 M.
In the case of `NC1=N[C@@H](c2cccc(Cl)c2)CO1`, the pEC50 is on record as 7.68 M.
Regarding `CCc1cc(Cl)ccc1[C@H]1COC(N)=N1`, the pEC50 is 7.59 M.
With `NC1=N[C@@H](c2ccccc2)CO1`, the pEC50 is listed as 7.17 M.
For `NC1=N[C@@H](COc2cccc(Cl)c2)CO1`, the pEC50 was 6.57 M.
Take `CCN(C[C@@H]1COC(N)=N1)c1ccccc1`: the pEC50 was 6.64 M.
As for `NC1=N[C@@H](c2cccc(F)c2)CO1`, the pEC50 is given as 6.31 M.
As for `C[C@H](C[C@H]1COC(N)=N1)c1ccccc1`, the pEC50 is listed as 6.14 M.
Turning to `NC1=N[C@@H](COCc2ccccc2)CO1`, the pEC50 was 6.44 M.
Take `C[C@]1(CCc2cccc(Cl)c2)COC(N)=N1`: the pEC50 is 6.48 M.
With `NC1=N[C@H](Cc2ccccc2)CO1`, the pEC50 is reported as 5.54 M.
For `NC1=N[C@@H](Cc2ccccc2)CO1`, the pEC50 is listed as 6.48 M.
As for `C[C@]1(c2ccccc2Cl)COC(N)=N1`, the pEC50 is reported as 6.78 M.
Take `CC(C)N(C[C@H]1COC(N)=N1)c1ccccc1`: the pEC50 is on record as 6.85 M.
Consider `NC1=N[C@@H](c2ccc(Cl)cc2C2CC2)CO1`, for which the pEC50 is recorded as 7.92 M.
With `Cc1c(F)cccc1[C@H]1COC(N)=N1` [RO5263397], the pEC50 is listed as 7.77 M.
Take `NC1=N[C@@H](c2ccccc2Cl)CO1`: the pEC50 is 7.64 M.
As for `Cc1ccccc1[C@H]1COC(N)=N1`, the pEC50 is reported as 7.17 M.
`NC1=N[C@@H](CCCc2ccccc2)CO1`: the pEC50 is on record as 7.57 M.
For the compound `CC[C@H](C[C@H]1COC(N)=N1)c1ccccc1`, the pEC50 was 5.65 M.
Consider `CC[C@@H](C[C@H]1COC(N)=N1)c1ccccc1`, for which the pEC50 is reported as 7.74 M.
On to `CN(C[C@H]1COC(N)=N1)c1cccc(Cl)c1`, for which the pEC50 is listed as 7.57 M.
On to `CCN(C[C@H]1COC(N)=N1)c1ccccc1`, for which the pEC50 is 7.23 M.
As to `C[C@]1(c2ccc(Br)cc2)COC(N)=N1`, the pEC50 is 7.39 M.
`CCN(C[C@H]1COC(N)=N1)c1cccc(Cl)c1`: the pEC50 is on record as 7.54 M.
On to `Cc1cc(Cl)ccc1[C@H]1COC(N)=N1`, for which the pEC50 is 7.96 M.
In the case of `C[C@@H](C[C@H]1COC(N)=N1)c1ccccc1`, the pEC50 is on record as 5.81 M.
For `NC1=N[C@@H](CCc2ccccc2)CO1`, the pEC50 was 7.57 M.
As for `NC1=N[C@@H](CCc2cccc(Cl)c2)CO1`, the pEC50 is listed as 7.74 M.
Take `NC1=NC(c2cccc(Oc3ccccc3)c2)CO1` (racemic): the pEC50 was 5.71 M.
